Consider one substance from paper PMC9394474.

The target of the assay is human hisTRIM7- (human) (UniProt Q9C029). Nature of the assay: ITC.

Broadly, the Kd is the free concentration of one partner at which half of the binding sites on the other are occupied at equilibrium, for simple one-to-one binding.

Regarding CVB3 2BC C-terminal peptide, the Kd is 11.2 µM.
